Experimental data: patent US20150148311A1, “NON-SYSTEMIC TGR5 AGONISTS” (Ardelyx, Inc., priority 2011, published 2015)

Columns and labels:
[1] = test system: total GLP-1; experiment: In vivo GLP-1 secretion, plasma total GLP-1 8 h post dose; conditions: Mus musculus, C57BL/6 male mice, food removed, plasma total GLP-1 eight hours after dosing, read-out: GLP-1 fold change over vehicle, Mean
[2] = test system: C57BL/6 male mice; experiment: In vivo gallbladder measurement (weight) 8 h post dose; conditions: 30 mg/kg; for Gallbladder weight/body weight fold change over vehicle, Significance: 8 h, vs. vehicle, one-way ANOVA, Dunnett's test; for Gallbladder weight/body weight fold change over vehicle, Mean: food removed, eight hours after dosing
[3] = Compound plasma concentration, LC-MS/MS, 8 h post dose; type: in vivo; conditions: male, C57BL/6, mouse, mice, 30 mg/kg, read-out: Mean Example Plasma Concentration

concentration at 8 h [3] [ng/mL] | SMILES | response vs control in vivo at 30 mg/kg [1] [%] | Gallbladder weight/body weight fold change over vehicle, Significance [2] | Gallbladder weight/body weight fold change over vehicle, Mean [2] [fold change over vehicle]
 | C[C@@H](NC(=O)[C@@H](C)NC(=O)[C@@H](C)NC(=O)CCCCc1cc(Cl)c(CN2CSC[C@H]2C(=O)N2CCN(C3CC3)c3ccccc32)cc1Cl)C(=O)O [Example 227] | 190 | * (* p < 0.05 vs. vehicle; One-way ANOVA followed by Dunnett's test) | 1.4
 | O=C(O)CNC(=O)CNC(=O)CNC(=O)CCCCc1cc(Cl)c(CN2CSC[C@H]2C(=O)N2CCN(C3CC3)c3ccccc32)cc1Cl [Example 228] | 160 | * (* p < 0.05 vs. vehicle; One-way ANOVA followed by Dunnett's test) | 1.5
 | O=C(CCCCc1cc(Cl)c(CN2CSC[C@H]2C(=O)N2CCN(C3CC3)c3ccccc32)cc1Cl)N[C@@H](C(=O)O)[C@@H](O)[C@H](O)[C@H](O)CO [Example 240] | 190 | * (* p < 0.05 vs. vehicle; One-way ANOVA followed by Dunnett's test) | 1.2
 | O=C(O)CNC(=O)[C@H](CSSC[C@H](NC(=O)CC[C@H](NC(=O)CCCCc1cc(Cl)c(CN2CSC[C@H]2C(=O)N2CCN(C3CC3)c3ccccc32)cc1Cl)C(=O)O)C(=O)NCC(=O)O)NC(=O)CC[C@H](NC(=O)CCCCc1cc(Cl)c(CN2CSC[C@H]2C(=O)N2CCN(C3CC3)c3ccccc32)cc1Cl)C(=O)O [Example 241] | 110 | n.s. | 1.2
 | CN(C[C@H](O)[C@@H](O)[C@H](O)[C@H](O)CO)C(=O)CC[C@H](NC(=O)CCCCc1cc(Cl)c(CN2CSC[C@H]2C(=O)N2CCN(C3CC3)c3ccccc32)cc1Cl)C(=O)O [Example 278] | 140 | * (* p < 0.05 vs. vehicle; One-way ANOVA followed by Dunnett's test) | 1.3
2 | O=C(O)CC[C@H](NC(=O)CCCCc1cc(Cl)c(CN2CSC[C@H]2C(=O)N2CCN(C3CC3)c3ccccc32)cc1Cl)C(=O)O [Example 279] |  |  | 
 | O=C(NCCCCCc1cc(Cl)c(CN2CSC[C@H]2C(=O)N2CCN(C3CC3)c3ccccc32)cc1Cl)N1CCN(CP(=O)(O)O)CC1 [Example 282] | 80 | n.s. | 0.8
 | O=C(NCCCCCc1cc(Cl)c(CN2CSC[C@H]2C(=O)N2CCN(C3CC3)c3ccccc32)cc1Cl)NCP(=O)(O)O [Example 283] | 130 | * (* p < 0.05 vs. vehicle; One-way ANOVA followed by Dunnett's test) | 1.3
